The target of this assay is D3 dopamine receptor (Homo sapiens, UniProt P35462). The assay is described as follows: β-arrestin recruitment assay. It counts as cell-based.

Amino acid sequences for entries named in this document (tags omitted).
UniProt P35462, whole entry: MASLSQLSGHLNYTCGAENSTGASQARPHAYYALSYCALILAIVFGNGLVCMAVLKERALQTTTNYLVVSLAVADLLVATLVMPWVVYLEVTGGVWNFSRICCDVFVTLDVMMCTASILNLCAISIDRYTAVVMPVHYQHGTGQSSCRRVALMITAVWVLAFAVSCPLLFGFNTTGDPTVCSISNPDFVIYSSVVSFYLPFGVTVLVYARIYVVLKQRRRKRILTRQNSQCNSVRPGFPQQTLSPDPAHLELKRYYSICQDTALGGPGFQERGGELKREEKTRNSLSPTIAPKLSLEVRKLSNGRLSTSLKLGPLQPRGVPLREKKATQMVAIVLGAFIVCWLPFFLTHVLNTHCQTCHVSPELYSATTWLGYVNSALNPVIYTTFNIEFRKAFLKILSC

Molecules are shown by their SMILES.

The term IC50 denotes the concentration that gives 50% inhibition. A lower IC50 goes with greater potency in that assay.

Molecule `CCN1CCCC1CNC(=O)c1cc(S(N)(=O)=O)ccc1OC` (stereo not shown) [sulpiride] returned an IC50 of 41.8 nM.

For the origin of these results see paper PMC4449328 (European neuropsychopharmacology : the journal of the …, 2014).
